Drawing on patent publication US8192749B2, “Methods of simultaneously treating ocular rosacea and acne rosacea” (priority 2003, dated 2012), this text covers MPE and biodistribution for 1 substance.

Series [1] concerns BALB/c 3T3 (CCL-163) cells. Briefly: 3T3 Neutral Red phototoxicity assay (PIF and MPE valuations). The conditions noted are these: mean photo effect, 3T3 cells with/without UVA 5 J/cm^2; <0.1 nonphototoxin, 0.1 to <0.15 probable phototoxin, >=0.15 clear phototoxin.
For series [2] the following is noted: statement in words; cited from earlier work.

Substance tetracycline pyrazole [COL 5] showed an MPE in series [1] of 0.186. Also, in series [2], the biodistribution result was “only limited biodistribution”.
